Data published in patent EP1200093B1, “USE OF 2-AMINO-4-(4-FLUORONAPHTH-1-YL)-6-ISOPROPYLPYRIMIDINE IN THE TREATMENT OF GI DISORDERS” (priority 1999, dated 2001).

The chains behind the UniProt entries cited, without tags or fusion partners.
UniProt P41595, whole entry: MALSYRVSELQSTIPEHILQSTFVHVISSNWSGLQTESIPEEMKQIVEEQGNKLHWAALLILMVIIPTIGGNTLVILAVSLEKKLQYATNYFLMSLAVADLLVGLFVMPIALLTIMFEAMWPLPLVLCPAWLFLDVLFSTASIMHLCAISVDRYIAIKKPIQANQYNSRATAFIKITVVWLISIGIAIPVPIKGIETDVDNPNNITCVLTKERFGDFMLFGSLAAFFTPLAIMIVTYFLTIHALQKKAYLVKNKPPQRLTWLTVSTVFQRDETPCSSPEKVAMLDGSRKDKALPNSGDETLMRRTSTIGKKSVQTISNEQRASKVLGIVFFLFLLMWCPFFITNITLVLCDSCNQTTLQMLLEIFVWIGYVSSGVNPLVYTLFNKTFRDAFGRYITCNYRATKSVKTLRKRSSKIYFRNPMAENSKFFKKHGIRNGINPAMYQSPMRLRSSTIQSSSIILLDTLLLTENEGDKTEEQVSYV

Molecular target: 5-HT receptor in human colon longitudinal muscle (Homo sapiens, UniProt P41595)
Assay: cell-based

For CSc1ccc2c(c1)C(N1CCN(C)CC1)Cc1ccccc1S2 (stereo not shown) [Methiothepin], the Kb was 31.6 nM.
